Data published in ChEMBL document CHEMBL5728058, “3-(carboxymethyl)-8-amino-2-oxo-1,3-diaza-spiro-[4.5]-decane derivatives” (2020).
“And” between values parts separate entries of the source, which are not always exact repeats. Equal values may be shown once.

Sequences of proteins named here, by UniProt entry; tags and fusion partners are left off.
UniProt P35372, whole entry, looked up: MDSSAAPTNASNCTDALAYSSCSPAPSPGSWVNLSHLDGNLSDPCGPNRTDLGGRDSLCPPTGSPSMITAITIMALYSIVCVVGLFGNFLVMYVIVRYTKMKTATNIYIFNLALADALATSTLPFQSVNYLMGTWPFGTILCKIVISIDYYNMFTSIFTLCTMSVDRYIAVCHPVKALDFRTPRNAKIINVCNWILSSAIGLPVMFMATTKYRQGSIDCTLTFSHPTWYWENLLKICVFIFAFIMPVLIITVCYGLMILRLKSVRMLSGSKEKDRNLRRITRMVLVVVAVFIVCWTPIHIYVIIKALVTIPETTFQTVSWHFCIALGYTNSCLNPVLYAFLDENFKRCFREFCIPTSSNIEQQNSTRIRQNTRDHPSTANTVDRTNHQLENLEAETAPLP

target: Mu-type opioid receptor (Homo sapiens, UniProt P35372); assay: Human Mu-Opioid Peptide (hMOP) Receptor Binding Assay: The hMOP receptor binding assay was performed as homogeneous SPA-assay (scintillation proximity assay) using the assay buffer 50 mM TRIS-HCl (pH 7.4) supplemented with 0.052 mg/ml bovine serum albumin (Sigma-Aldrich Co., St. Louis, Mo.). The final assay volume (250 μl/well) included 1 nM of [N-allyl-2,3-3H]naloxone as ligand (PerkinElmer Life

Point of comparison: `CN(C)[C@]1(c2ccccc2)CC[C@]2(CC1)CN(CC(=O)NCC(=O)N1CCOCC1)C(=O)N2CC1CCC1`, Ki 73.7 nM. Against it:
- Cc1ccncc1NC(=O)CN1C[C@]2(CC[C@](c3ccccc3)(N(C)C)CC2)N(CC2CCC2)C1=O — 3.6-fold lower, 20.5 nM
- CN(C)[C@]1(c2ccccc2)CC[C@]2(CC1)CN(CC(=O)Nc1ccc(O)cn1)C(=O)N2CC1CCC1 — 2.5-fold lower, 30 nM
- CCN[C@]1(c2ccccc2)CC[C@@]2(CC1)CN(CC(=O)N1CCS(=O)(=O)CC1)C(=O)N2 — 8.5-fold higher, 625 nM
- CN(C)[C@]1(c2ccccc2)CC[C@]2(CC1)CN(CC(=O)NCC(N)=O)C(=O)N2CC1(O)CCC1 — within 1.5-fold, 106 nM
- CNC(=O)C(C)(C)NC(=O)CN1C[C@]2(CC[C@](c3ccccc3)(N(C)C)CC2)N(CC2CCC2)C1=O — 1.6-fold higher, 118 nM
- CN(C)[C@]1(c2ccccc2)CC[C@]2(CC1)CN(CC(=O)N1C[C@H](O)[C@@H](O)C1)C(=O)N2CC1CCC1 — 1.6-fold lower, 45 nM
- CSc1cccc(NC(=O)CN2C[C@]3(CC[C@](c4ccccc4)(N(C)C)CC3)N(CC3CCC3)C2=O)n1 — 1.7-fold higher, 125 nM
- CN(C)[C@]1(c2ccccc2)CC[C@]2(CC1)CN(CC(=O)Nc1nncs1)C(=O)N2CC1CCC1 — within 1.5-fold, 64 nM
- CN[C@]1(c2ccccc2)CC[C@]2(CC1)CN(CC(=O)NCC(=O)N(C)C)C(=O)N2CC1CCC1 — 2.7-fold higher, 200 nM
- COc1cccnc1NC(=O)CN1C[C@]2(CC[C@](c3ccccc3)(N(C)C)CC2)N(CC2CCC2)C1=O — within 1.5-fold, 104 nM
- Cc1ccccc1CNC(=O)CN1C[C@]2(CC[C@](c3ccccc3)(N(C)C)CC2)N(CC2CCC2)C1=O — 10-fold lower, 7.2 nM
- CSc1ccc(NC(=O)CN2C[C@]3(CC[C@](c4ccccc4)(N(C)C)CC3)N(CC3CCC3)C2=O)nc1 — 1.5-fold higher, 114 nM
- CCN(C)[C@]1(c2ccccc2)CC[C@]2(CC1)CN(CC(=O)Nc1cccc(OC)n1)C(=O)N2CC1CCC1 — 9.2-fold higher, 680 nM
- CN(CCO)C(=O)CN1C[C@]2(CC[C@](c3ccc(F)cc3)(N(C)C)CC2)N(CC2CCC2)C1=O — 3.5-fold higher, 260 nM
- CN(C)[C@]1(c2ccccc2)CC[C@]2(CC1)CN(CC(=O)NCC(N)=O)C(=O)N2CC1(C)CCC1 — within 1.5-fold, 72.5 nM
- CN(C)[C@]1(c2ccccc2)CC[C@]2(CC1)CN(CC(=O)N1CCN(S(C)(=O)=O)CC1)C(=O)N2CC1CCC1 — 1.5-fold lower, 49 nM
- CN(C)[C@]1(c2ccccc2)CC[C@]2(CC1)CN(CC(=O)N1CCCC(O)C1)C(=O)N2CC1CCC1 (stereo not given in full) — 3.4-fold lower, 22 nM
- COc1cnc(NC(=O)CN2C[C@]3(CC[C@](c4ccccc4)(N(C)C)CC3)N(CC3CCC3)C2=O)nc1 — 1.7-fold lower, 43 nM
- CN(CC(N)=O)C(=O)CN1C[C@]2(CC[C@](c3ccccc3)(N(C)C)CC2)N(CC2CC2)C1=O — 4.1-fold higher, 300 nM
- CN(C)[C@]1(c2ccccc2)CC[C@]2(CC1)CN(CC(=O)Nc1ccc(S(C)(=O)=O)nc1)C(=O)N2CC1CCC1 — 3-fold lower, 24.5 nM
- Cc1cnccc1NC(=O)CN1C[C@]2(CC[C@](c3ccccc3)(N(C)C)CC2)N(CC2CCC2)C1=O — within 1.5-fold, 57 nM
- CCN(C)[C@]1(c2ccccc2)CC[C@]2(CC1)CN(CC(=O)NCC(N)=O)C(=O)N2CC1CCC1 — 5.3-fold higher, 390 nM
- CN[C@]1(c2ccccc2)CC[C@]2(CC1)CN(CC(=O)NCCO)C(=O)N2CC1CCC1 — 1.5-fold higher, 114 nM
- COc1cnccc1NC(=O)CN1C[C@]2(CC[C@](c3ccccc3)(N(C)C)CC2)N(CC2CCC2)C1=O — 1.7-fold lower, 43.5 nM
- CN(C)[C@]1(c2ccccc2)CC[C@]2(CC1)CN(CC(=O)Nc1ncc(O)cn1)C(=O)N2CC1CCC1 — within 1.5-fold, 73.5 nM
- CN(C)[C@]1(c2ccccc2)CC[C@]2(CC1)CN(CC(=O)Nc1cnc(C#N)nc1)C(=O)N2CC1CCC1 — 3.8-fold lower, 19.5 nM
- CN(C)[C@]1(c2ccccc2)CC[C@]2(CC1)CN(CC(=O)Nc1cc(S(C)(=O)=O)ccn1)C(=O)N2CC1CCC1 — within 1.5-fold, 60.5 nM
- CN(C)[C@]1(c2ccccc2)CC[C@]2(CC1)CN(CC(=O)N1CCC(C)(O)CC1)C(=O)N2CC1(O)CCC1 — 4.4-fold higher, 325 nM
- CN(C)[C@]1(c2ccccc2)CC[C@]2(CC1)CN(CC(=O)NCC(N)=O)C(=O)N2CC1CC1 — 1.7-fold higher, 125 nM
- CN(C)[C@]1(c2ccccc2)CC[C@@]2(CC1)CN(CC(=O)N1CCS(=O)(=O)CC1)C(=O)N2 — 6.7-fold lower, 11 nM
- CN(CCO)C(=O)CN1C[C@]2(CC[C@](c3cccc(F)c3)(N(C)C)CC2)N(CC2CCC2)C1=O — 2.5-fold higher, 185 nM
- CNC(=O)c1cccc(NC(=O)CN2C[C@]3(CC[C@](c4ccccc4)(N(C)C)CC3)N(CC3CCC3)C2=O)n1 — 1.9-fold higher, 140 nM
- CN(C(=O)CN1C[C@]2(CC[C@](c3ccccc3)(N(C)C)CC2)N(CC2CCC2)C1=O)C(C)(C)C(N)=O — 2.6-fold higher, 190 nM
- COCCOCCNC(=O)CN1C[C@]2(CC[C@](c3ccccc3)(N(C)C)CC2)N(CC2CCC2)C1=O — 5.9-fold lower, 12.5 nM
- CC(=O)NCCNC(=O)CN1C[C@]2(CC[C@](c3ccccc3)(N(C)C)CC2)N(CC2CCC2)C1=O — 2-fold lower, 37.7 nM
- CN(C)[C@]1(c2ccccc2)CC[C@]2(CC1)CN(CC(=O)NCCOCCO)C(=O)N2CC1CCC1 — within 1.5-fold, 51 nM
- CCOC(=O)CN1C[C@]2(CC[C@](c3ccccc3)(N(C)C)CC2)N(CC2CCC2)C1=O — 1.9-fold lower, 38.5 nM
- COc1ccc(NC(=O)CN2C[C@]3(CC[C@](c4ccccc4)(N(C)C)CC3)N(CC3CCC3)C2=O)nn1 — 1.5-fold lower, 48.5 nM
- CN(C)[C@]1(c2ccccc2)CC[C@]2(CC1)CN(CC(=O)NCc1cccnn1)C(=O)N2CC1CCC1 — 1.7-fold lower, 43 nM
- Cc1ncc(NC(=O)CN2C[C@]3(CC[C@](c4ccccc4)(N(C)C)CC3)N(CC3CCC3)C2=O)cn1 — 3.4-fold lower, 21.5 nM
- CN(C)[C@]1(c2ccccc2)CC[C@]2(CC1)CN(CC(=O)Nc1ccnc(C#N)n1)C(=O)N2CC1CCC1 — within 1.5-fold, 72 nM
- CN(C)[C@]1(c2ccccc2)CC[C@]2(CC1)CN(CC(=O)NCc1ccnnc1)C(=O)N2CC1CCC1 — 3.8-fold lower, 19.5 nM
- Cc1ccnc(NC(=O)CN2C[C@]3(CC[C@](c4ccccc4)(N(C)C)CC3)N(CC3CCC3)C2=O)c1 — within 1.5-fold, 54 nM
- CN[C@]1(c2ccccc2)CC[C@]2(CC1)CN(CC(=O)N(C)CC(N)=O)C(=O)N2CC1CCC1 — 1.9-fold higher, 140 nM
- CN(C)[C@]1(c2ccccc2)CC[C@]2(CC1)CN(CC(=O)NCc1ncco1)C(=O)N2CC1CCC1 — 6.7-fold lower, 11 nM
- COCCOCCOCCNC(=O)CN1C[C@]2(CC[C@](c3ccccc3)(N(C)C)CC2)N(CC2CCC2)C1=O — 2.9-fold lower, 25.5 nM
- CNC(=O)c1ccc(NC(=O)CN2C[C@]3(CC[C@](c4ccccc4)(N(C)C)CC3)N(CC3CCC3)C2=O)nc1 — 3.2-fold lower, 23 nM
- CN(C)[C@]1(c2ccccc2)CC[C@]2(CC1)CN(CC(=O)Nc1cccc(C#N)n1)C(=O)N2CC1CCC1 — within 1.5-fold, 67.3 nM
- CN(C)[C@]1(c2ccccc2)CC[C@]2(CC1)CN(CC(=O)N1CCn3ncnc3C1)C(=O)N2CC1CCC1 — 3.2-fold lower, 23 nM
- COC(=O)c1ccc(NC(=O)CN2C[C@]3(CC[C@](c4ccccc4)(N(C)C)CC3)N(CC3CCC3)C2=O)nc1 — 2-fold higher, 150 nM
- CNC(=O)CN1C[C@]2(CC[C@](c3ccccc3)(N(C)C)CC2)N(CC2(C#N)CCC2)C1=O — within 1.5-fold, 56 nM
- CN(C)[C@]1(c2ccccc2)CC[C@]2(CC1)CN(CC(=O)N1CCOCC1)C(=O)N2CC1CCC1 — within 1.5-fold, 51 nM
- CN(C)[C@]1(c2ccccc2)CC[C@]2(CC1)CN(CC(=O)NCC1(O)CC1)C(=O)N2CC1CCC1 — within 1.5-fold, 106 nM
- COC(=O)c1cccc(NC(=O)CN2C[C@]3(CC[C@](c4ccccc4)(N(C)C)CC3)N(CC3CCC3)C2=O)n1 — 2.2-fold higher, 160 nM
- CN[C@]1(c2ccccc2)CC[C@]2(CC1)CN(CC(=O)NCC(N)=O)C(=O)N2CC1CCC1 — 5.6-fold higher, 410 nM
- CN(C)[C@]1(c2ccccc2)CC[C@]2(CC1)CN(CC(=O)NC1(C#N)CC1)C(=O)N2CC1CCC1 — within 1.5-fold, 86 nM
- CN(C)[C@]1(c2ccccc2)CC[C@]2(CC1)CN(CC(=O)Nc1cncnc1)C(=O)N2CC1CCC1 — 2.8-fold lower, 26.5 nM
- CSc1ccnc(NC(=O)CN2C[C@]3(CC[C@](c4ccccc4)(N(C)C)CC3)N(CC3CCC3)C2=O)c1 — 2.4-fold higher, 180 nM
- CN(C)[C@]1(c2ccccc2)CC[C@]2(CC1)CN(CC(=O)NCc1cnccn1)C(=O)N2CC1CCC1 — 5.9-fold lower, 12.5 nM
- CN(C)[C@]1(c2ccccc2)CC[C@]2(CC1)CN(CC(=O)Nc1cc(C#N)ccn1)C(=O)N2CC1CCC1 — within 1.5-fold, 74.5 nM
- CN(C)[C@]1(c2ccccc2)CC[C@]2(CC1)C(=O)N(CC(=O)N1CCS(=O)(=O)CC1)C(=O)N2CC1(O)CCC1 — 1.9-fold lower, 38 nM
- COc1nccc(NC(=O)CN2C[C@]3(CC[C@](c4ccccc4)(N(C)C)CC3)N(CC3CCC3)C2=O)n1 — 1.6-fold lower, 45 nM
- CN(C)[C@]1(c2ccccc2)CC[C@]2(CC1)CN(CC(=O)N1CCNC(=O)C1)C(=O)N2CC1CCC1 — 1.9-fold lower, 38 nM
- CN(C)[C@]1(c2ccccc2)CC[C@]2(CC1)CN(CC(=O)Nc1cccnn1)C(=O)N2CC1CCC1 — 2.3-fold lower, 32.5 nM
- CN(C)[C@]1(c2ccccc2)CC[C@]2(CC1)CN(CC(=O)Nc1ccc(F)nc1)C(=O)N2CC1CCC1 — 1.6-fold lower, 47 nM
- COCCCN1C(=O)N(CC(=O)NCC(N)=O)C[C@]12CC[C@](c1ccccc1)(N(C)C)CC2 — within 1.5-fold, 86 nM
- Cc1cccnc1NC(=O)CN1C[C@]2(CC[C@](c3ccccc3)(N(C)C)CC2)N(CC2CCC2)C1=O — 1.5-fold lower, 49 nM
- COc1cnc(NC(=O)CN2C[C@]3(CC[C@](c4ccccc4)(N(C)C)CC3)N(CC3CCC3)C2=O)cn1 — 2.6-fold lower, 28.2 nM
- Cc1ccc(NC(=O)CN2C[C@]3(CC[C@](c4ccccc4)(N(C)C)CC3)N(CC3CCC3)C2=O)cn1 — 3.4-fold lower, 21.5 nM
- Cn1ccc(NC(=O)CN2C[C@]3(CC[C@](c4ccccc4)(N(C)C)CC3)N(CC3CCC3)C2=O)n1 — within 1.5-fold, 71 nM
- CNC(=O)C(C)(C)N(C)C(=O)CN1C[C@]2(CC[C@](c3ccccc3)(N(C)C)CC2)N(CC2CCC2)C1=O — 5.3-fold higher, 390 nM
- CN(C)[C@]1(c2ccccc2)CC[C@]2(CC1)CN(CC(=O)Nc1ncccc1F)C(=O)N2CC1CCC1 — 1.6-fold lower, 45 nM
- COCCCN1C(=O)N(CC(=O)Nc2ccncn2)C[C@]12CC[C@](c1ccccc1)(N(C)C)CC2 — 2-fold higher, 150 nM

In the case of `COc1ccnc(NC(=O)CN2C[C@]3(CC[C@](c4ccccc4)(N(C)C)CC3)N(CC3CCC3)C2=O)c1`, the Ki is reported as 175 nM and 74.5 nM.
In the case of `CN(C)[C@]1(c2ccccc2)CC[C@]2(CC1)CN(CC(=O)NC1CCS(=O)(=O)CC1)C(=O)N2CC1CCC1`, the Ki is reported as 30.5 nM and 90 nM.
`CN(C)[C@]1(c2ccccc2)CC[C@]2(CC1)CN(CC(=O)N1CCS(=O)(=O)CC1)C(=O)N2CC1CCC1` was tested, and the Ki was 30 nM and 56.7 nM.
With `CN(C)C(=O)CNC(=O)CN1C[C@]2(CC[C@](c3ccccc3)(N(C)C)CC2)N(CC2CCC2)C1=O` the Ki was 26.5 nM and 77.2 nM.
With `CN(C)[C@]1(c2ccccc2)CC[C@]2(CC1)CN(CC(=O)NCC(N)=O)C(=O)N2CC1CCC1` the Ki was 23.3 nM and 61.5 nM.
For `CNC(=O)CNC(=O)CN1C[C@]2(CC[C@](c3ccccc3)(N(C)C)CC2)N(CC2CCC2)C1=O`, the Ki was 21.2 nM and 63 nM.
